Assay: Veliparib plasma pharmacokinetics
Assay type: in vivo, human

Q: Which results are given for `C[C@]1(c2nc3c(C(N)=O)cccc3[nH]2)CCCN1` [Veliparib, veliparib]?
A: Cl/F (veliparib 20 mg alone (day 1), temozolomide dose 150 or 200 mg/m^2/day): 33.2±18.4 (3) L/h; Cl/F (veliparib 20 mg in combination with temozolomide 150 or 200 mg/m^2/day (day 8)): 22.9±3.6 (3) L/h; Cl/F (veliparib 40 mg alone (day 1), temozolomide dose 200 mg/m^2/day, n=1): 8.6 (1) L/h; Cl/F (veliparib 120 mg alone (day 1), temozolomide dose 200 mg/m^2/day): 20.2±4.9 (10) L/h; Cl/F (veliparib 120 mg in combination with temozolomide 200 mg/m^2/day (day 8)): 15.0±3.6 (8) L/h; Cl/F (veliparib 150 mg alone (day 1), temozolomide dose 200 mg/m^2/day): 18.4±7.5 (16) L/h; Cl/F (veliparib 150 mg in combination with temozolomide 200 mg/m^2/day (day 8)): 14.6±6.8 (10) L/h; Cl/F (veliparib 200 mg alone (day 1), temozolomide dose 200 mg/m^2/day): 14.6±5.1 (4) L/h; Cl/F (veliparib 200 mg in combination with temozolomide 200 mg/m^2/day (day 8)): 14.6±4.1 (3) L/h

— publication PMC5290001 (Clinical cancer research : an official journal of the …, 2016)
